Here are results for one molecule from patent US20200123104A1, “PHARMACEUTICAL AGENT THAT BINDS THE P2X7 RECEPTOR” (Indiana University Research and Technology Corporation, priority 2017, published 2020).

Amino acid sequences for entries named in this document (tags omitted). A change or cut given only in a name is not applied to a line headed by its entry.
UniProt Q99572: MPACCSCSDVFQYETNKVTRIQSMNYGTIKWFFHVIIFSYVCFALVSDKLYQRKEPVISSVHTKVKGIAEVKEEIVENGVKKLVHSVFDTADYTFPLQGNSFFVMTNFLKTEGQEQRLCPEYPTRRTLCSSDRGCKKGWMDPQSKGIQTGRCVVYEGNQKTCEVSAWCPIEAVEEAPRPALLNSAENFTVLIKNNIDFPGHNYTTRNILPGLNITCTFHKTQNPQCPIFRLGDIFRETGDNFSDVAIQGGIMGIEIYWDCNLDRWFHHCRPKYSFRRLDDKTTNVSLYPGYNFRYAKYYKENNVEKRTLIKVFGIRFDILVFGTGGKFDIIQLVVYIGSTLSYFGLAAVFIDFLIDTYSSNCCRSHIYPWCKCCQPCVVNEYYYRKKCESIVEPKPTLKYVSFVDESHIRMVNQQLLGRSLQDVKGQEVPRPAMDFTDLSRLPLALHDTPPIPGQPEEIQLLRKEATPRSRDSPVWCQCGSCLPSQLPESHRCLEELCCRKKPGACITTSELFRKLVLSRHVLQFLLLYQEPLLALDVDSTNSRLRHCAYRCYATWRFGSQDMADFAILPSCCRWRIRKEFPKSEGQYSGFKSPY

Broadly, the IC50 is the point on the concentration scale where inhibition reaches its midpoint. Read a low IC50 as higher potency. In general, Ki refers to a dissociation constant, usually derived from enzyme kinetics or from competition with a known ligand.

Molecules are shown by their SMILES.

In this assay the target is P2X7 receptor (Homo sapiens, UniProt Q99572). Put plainly: Competitive binding with [11C]GSK1482160 as reference tracer, membrane homogenate of HEK cells transfected with the human P2X7 gene. To be noted: HEK-hP2X7 membrane homogenate, [11C]GSK1482160 reference tracer. Further details: host or cells: HEK (human embryonic kidney) cells, membrane homogenate.

For `O=C(NCc1cccc(C(F)(F)F)c1Cl)[C@@H]1CCC(=O)N1CCF` [IUR-1601, (S)—N-(2-chloro-3-(trifluoromethyl)benzyl)-1-(2-fluoroethyl)-5-oxopyrrolidine-2-carboxamide], the IC50 turned out to be 7.17 nM and the Ki was 4.31 ± 0.92 nM.
